Source: paper PMC10189885, “Transcription activation by the resistance protein AlbA as a tool to evaluate derivatives of the antibiotic albicidin” (Chemical Science, 2023)
≈ marks a conversion by molar mass, not a printed value.

Assays:
[1] = target: T1, E. coli gyrase (Escherichia coli, UniProt P0AES4+P0AES6); type: biochemical; parameters: key: 0, equal to the activity of albicidin; -, lower than the activity of albicidin; +, higher than the activity of albicidin; conditions: 45 nM compound, relative to albicidin, 37 °C, 30 min
T1 construct: purchased Inspiralis Limited, Norwich, UK

[2] = system: E. coli DH5α; test: MIC determination (microdilution); type: cell-based; conditions: Escherichia coli
Experimental: (§1) E. coli growth inhibition assay
(§2) liquid culture were conducted.
(§3) All assays were set up in triplicates.
(§4) scanner (Epson) with argusX.
(§5) overnight at 37 °C, 200 rpm shaking.
(§6) 95 μL of the inoculum were applied
(§7) Previously, the dry antibiotic compounds were
(§8) The antimicrobial effect of the solvent
(§9) Both microdilution trays and agar plates
(§10) DNA-Gyrase inhibition testing
(§11) The final DMSO concentration was 3%.
(§12) AlbA and its mutants were diluted in […]

[3] = system: M. phlei DSM750; test: MIC determination (microdilution); type: cell-based
Experimental: as §1, §2, §3, §4, §5, §6, §7, §8, §9, §10, §11, §12

[4] = system: M. luteus DSM1790; test: MIC determination (microdilution); type: cell-based; conditions: for MIC: Micrococcus luteus, DSM1790, 20 h, read-out: MIC M. Luteus DSM1790
[5] = target: AlbA (Klebsiella oxytoca, UniProt Q8KRS7); test: Bioluminescence transcription activation (reporter) assay, pCS-pAlbA-ilux + pET15b-ΔHisAlbA in E. coli BL21(DE3); type: cell-based; conditions: monitored over 12 hours; both plasmids present
Excerpt: Having established the operator sequence that is recognized by AlbA, we introduced the 41-bp-long fragment (Fig. 2B) into a reporter vector that encodes the ilux[46] luminescence cassette (pCS-pAlbA-ilux; Fig. S2A and B ^†). To create a system similar to the albA operon in K. oxytoca, the distance between the −10 region and the ribosome binding site was kept intact (16 bp). The ilux cassette includes the optimized bacterial luciferase genes luxCDABE from Photorhabdus luminescens as well as an additional FMN reductase to recycle FMNH2 faster.[46] FMNH2 is oxidized by the luciferase together with an aliphatic aldehyde that is oxidized to a carboxylic acid, which results in the emission of blue-green light (λmax = ∼490 nm). In our reporter system, the addition of albicidin to E. coli cells that contain the reporter plasmid and express albA should activate AlbA to bend the DNA so that transcription is initiated at the pAlbA promoter, leading to production of the ilux proteins and thus light emission. […]
proteins was assessed on SDS-PAGE (Figure S7). […]
Concentrations were determined with a nano-photometer P330 (Implen, Munich, Germany) spectrophotometer using extinction coefficients calculated with the ProtParam tool7 before storage at -80 °C. […]

[6] = system: E. coli DSM 1116; test: E. coli growth inhibition assay in presence and absence of AlbA; type: cell-based; conditions: 20 h; for E. coli growth inhibition by derivative preincubated with AlbA (evasion of capture): 10 µM compound + 10 µM AlbA (equimolar), 37 °C; for antibacterial activity of derivative alone in growth inhibition assay: 10 µM compound without AlbA
Experimental: as §1, §2, §3, §4, §5, §6, §7, §8, §9, §10, §11, §12

[7] = system: E. coli DSM1116; test: MIC determination (microdilution); type: cell-based; conditions: Escherichia coli, DSM1116, 20 h, read-out: MIC E. coli DSM1116
Experimental: as §1, §2, §3, §4, §5, §6, §7, §8, §9, §10, §11, §12

[8] = system: E. coli BW25113; test: MIC determination (microdilution); type: cell-based; conditions: Escherichia coli, BW25113, 20 h, read-out: MIC E. coli BW25113
Experimental: as §1, §2, §3, §4, §5, §6, §7, §8, §9, §10, §11, §12

[9] = system: B. subtilis DSM10; test: MIC determination (microdilution); type: cell-based; conditions: MHBII, 37 °C, 20 h
Experimental: as §1, §2, §3, §4, §5, §6, §7, §8, §9, §10, §11, §12

Molecule	gyrase inhibition [1]	MIC [4] [µg/mL]	E. coli growth inhibition by derivative preincubated with AlbA (evasion of capture) [6]	MIC [7] [µg/mL]	MIC [8] [µg/mL]	antibacterial activity of derivative alone in growth inhibition assay [6]	also measured
COc1c(NC(=O)c2ccc(NC(=O)c3ccc(NC(=O)[C@H](CC#N)NC(=O)c4ccc(NC(=O)/C(C)=C/c5ccc(O)cc5)cc4)cc3)c(OC)c2O)ccc(C(=O)O)c1O [Compound 1, albicidin]	0	2 (≈ 2.37 µM)					MIC [2]: ≤ 0.016 µg/mL; MIC ([3]; Mycolicibacterium phlei, DSM750, 20 h, read-out: MIC M. Phlei DSM750): 2 µg/mL (≈ 2.37 µM); light emission (luminescence) after addition of compound [5]: observed light emission
COc1c(NC(=O)c2ccc(NC(=O)c3ccc(NC(=O)[C@H](Cc4c[nH]nn4)NC(=O)c4ccc(C#Cc5ccc(C#N)cc5)cc4)cn3)c(OC)c2O)ccc(C(=O)O)c1O [Compound 10]	+	0.16 (≈ 0.191 µM)	evaded capture by AlbA sufficiently to inhibit E. coli growth, albeit not completely	≤ 0.016	≤ 0.016		
CC(C)Oc1c(NC(=O)c2ccc(NC(=O)[C@H](Cc3c[nH]nn3)NC(=O)c3ccc(NC(=O)c4ccc(C#N)cc4)cn3)cn2)ccc(C(=O)Nc2ccc(C(=O)O)cc2)c1O [Compound 11]	+	≤ 0.016	evaded capture by AlbA sufficiently to inhibit E. coli growth, albeit not completely	≤ 0.016	≤ 0.016		
COc1c(NC(=O)c2ccc(-n3cc(-c4ccc(NC(=O)[C@H](CC#N)NC(=O)c5ccc(NC(=O)/C(C)=C/c6ccc(O)cc6)cc5)cc4)nn3)c(OC)c2O)ccc(C(=O)O)c1O [Compound 12]			did not perform as well in growth inhibition assays			low antibacterial activity	
COc1c(NC(=O)c2ccc(NC(=O)c3ccc(NC(=O)[C@H](Cc4cnn[nH]4)NC(=O)c4ccc(NC(=O)c5ccc6cc(O)ccc6c5)cc4)cn3)c(OCCN)c2O)ccc(C(=O)O)c1O [Compound 13]			did not perform as well in growth inhibition assays			low antibacterial activity	
guanidino-albicidin [Compound 20]	+		did not perform as well in growth inhibition assays			low antibacterial activity	MIC B. subtilis DSM10 [9]: > 8 µg/mL; MIC M. Phlei DSM750 ([3]; MHBII, 37 °C, 20 h): > 8 µg/mL; MIC M. Luteus DSM1790 ([4]; MHBII, 37 °C, 20 h): > 8 µg/mL
